Antibody variant affinities, Ab-14 light chain, assay B

From the AlphaSeq antibody data of Li et al. 2023 (doi:10.1038/s41467-023-39022-2), copy in the FLAb collection.

All variants were tested on one target, the spike HR2 peptide PDVDLGDISGINAS (SARS-CoV-2).

Each scFv is VH, the linker GGGGSGGGGSGGGGS, VL, as in the parent Ab-14, and differs from it in the CDRs of the light chain only.
VH: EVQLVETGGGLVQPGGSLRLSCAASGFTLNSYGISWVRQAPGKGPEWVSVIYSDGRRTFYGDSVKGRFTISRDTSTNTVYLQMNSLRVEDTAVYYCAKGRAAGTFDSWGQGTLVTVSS
VL: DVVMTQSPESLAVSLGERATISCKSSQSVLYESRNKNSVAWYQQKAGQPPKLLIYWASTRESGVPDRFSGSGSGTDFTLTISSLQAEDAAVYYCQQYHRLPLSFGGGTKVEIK

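Phage display of a naive human antibody library on the peptide gave the parent. Designed CDR sequences, proposed from the first random library and measured here. Their group label is 14L_En_Gen (En: ensemble of fine-tuned language models; Gen: genetic algorithm). The scFvs were displayed on barcoded MATa yeast, the peptide on MATalpha yeast. The frequency of each diploid, read from paired DNA barcodes, reflects how well the two displayed proteins bind. Each replicate has its own calibration line, from reference interactions of the BCL2 family. Each pool was mated in six replicate cultures.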

The parent's light chain CDRs are KSSQSVLYESRNKNSVA, WASTRES, QQYHRLPLS; each variant's own CDRs replace them letter for letter. The read-out is the apparent dissociation constant on a log10 scale (nM): the lower, the stronger. A mean of the replicates is given; it leaves out those without a signal. "ND" means that the variant was in the library but no mating with the target was seen in that replicate; the authors take this as a sign of poor binding, and no number exists.

| # | CDR-L1 | CDR-L2 | CDR-L3 | replicates, log10 nM | log10 Kd (nM), mean | signal with controls |
|---|---|---|---|---|---|---|
| 1 | TISQMTSLFSQSINNVA | EVSMREE | QQYDRLPLS | 1.23 1.21 0.90 0.99 1.26 1.44 | 1.17 | 0/18 |
| 2 | MVYQAALMGGVARNSIA | NATMRPD | QQYHRLPLI | ND ND 2.70 2.87 2.24 ND | 2.61 | 0/18 |
| 3 | HMSSLTLGGMRHMNSVA | QMTTREN | QQYDRLPLS | 0.95 0.78 0.54 0.48 0.63 0.81 | 0.70 | 1/18 (3.02) |
| 4 | MISQLMNLGQFAINSVA | QAEIRNN | QQYDRLPLM | ND 1.91 1.19 1.55 2.36 1.92 | 1.78 | 1/18 (2.18) |
| 5 | TISQMTSMFSQNINNVA | EVSTREK | QQYDRLPLA | 0.37 0.61 0.56 0.48 0.40 0.67 | 0.51 | 0/18 |
| 6 | TISQVLNTLTKTGNNVA | DLAERED | QQYFRLPLS | 0.64 0.84 0.87 0.29 1.17 0.74 | 0.76 | 0/18 |
| 7 | IISELYNQAMGMRNNVA | NNATRED | QQYDRLPLS | 1.49 3.47 1.76 ND 2.48 ND | 2.30 | 0/18 |
| 8 | NIYQAMHTLSQMKDNVA | DVNERGT | QQYYRLPLS | 0.09 0.26 0.07 0.12 0.32 0.25 | 0.19 | 0/18 |
| 9 | TLYGLSNSMSINKNNVA | EMTTREK | QQYDRLPLV | 1.22 0.94 2.58 1.08 2.77 1.47 | 1.68 | 0/18 |
| 10 | MMSQVTGQGMRHRNNVA | QTETREP | QQYDRLPLV | 0.76 0.57 0.79 0.42 0.56 0.77 | 0.64 | 2/18 (2.33) |
| 11 | KIYQAMHTLSQHKDNVA | DVNERGS | QQYFRLPLS | 0.47 0.29 0.31 0.19 -0.03 0.39 | 0.27 | 0/18 |
| 12 | MVYGSMDQAMRTHNSIA | DNQTRES | QQYDRLPLS | ND 3.25 ND 2.59 1.96 4.66 | 3.11 | 0/18 |
| 13 | MISQLYNMGTFAINSVA | QASLRND | QQYDRLPLA | 1.34 0.82 1.03 1.19 0.97 1.01 | 1.06 | 1/18 (1.77) |
| 14 | KITATMRFEQKASNNIA | EVSTRSK | QQYVRLPLA | 0.05 0.19 0.08 -0.22 0.24 0.50 | 0.14 | 0/18 |
| 15 | KLTQTMRFEQKKKNNIA | EVSERSK | QQYYRLPLA | 1.13 1.99 1.73 ND 0.63 1.74 | 1.44 | 0/18 |
| 16 | MISQVMNTLTRHGNNVA | DLQEREQ | QQYFRLPLS | ND 0.91 0.93 0.91 1.38 1.12 | 1.05 | 0/18 |
| 17 | KLGETYEGNKRQRNSVA | HNSMREN | QQYDRLPLE | 1.79 ND ND 1.21 2.54 ND | 1.84 | 1/18 (1.50) |
| 18 | TITMFMDNAYHNRNNVA | DTSTLGS | QSYDRLPLS | 1.56 1.47 1.17 1.64 1.65 1.69 | 1.53 | 2/18 (3.49) |
| 19 | KITTTMRFEQKNSNNIA | EVSTRSK | QQYVRLPLA | 0.96 0.09 0.56 1.29 0.92 -0.01 | 0.64 | 0/18 |
| 20 | MIHEVMGLVSHKQSSIA | DNSTRES | QQYDRLPLS | ND ND ND 3.24 ND ND | 3.24 | 0/18 |
| 21 | MMSQVTGLGQRHRNNVA | QTSTRED | QQYDRLPLV | 0.34 0.63 0.57 0.81 0.50 0.97 | 0.63 | 2/18 (2.57) |
| 22 | TIGGTLMYGVRNRSNVA | EVSQRLN | QQYDRLPLL | ND 1.58 1.35 1.57 1.98 1.20 | 1.54 | 1/18 (2.27) |
| 23 | KLTATMRFEQKISNNIA | EVTQRSK | QQYYRLPLS | 1.01 0.51 0.54 0.65 0.24 0.60 | 0.59 | 0/18 |
| 24 | KVSEFMRGLMQRTDSIA | DNVTRQN | QQYDRLPLS | 1.75 1.92 3.08 1.73 2.27 ND | 2.15 | 1/18 (1.54) |
| 25 | TIADLMGHISKNMNNVA | DMDTRGD | QQYNRLPLS | -0.38 -0.43 -0.64 -0.73 -0.49 -0.43 | -0.52 | 2/18 (2.36) |
| 26 | HLGLSTMLQETVRNSVA | NNSTREE | QQYDRLPLS | 1.72 1.77 2.06 2.38 2.59 2.06 | 2.10 | 2/18 (3.14) |
| 27 | HITYGMMVAGRHSKSIA | QAEERAK | QQYDRLPLS | 0.65 0.74 0.58 0.57 0.56 0.70 | 0.63 | 0/18 |
| 28 | IVSQLMIWGMHVKNSIA | EAQTRIN | QQYDRLPLF | ND ND 2.33 2.35 ND ND | 2.34 | 0/18 |
| 29 | IVSQLMLWGMHAKNSIA | EAETRIN | QQYERLPLF | 1.66 ND 2.91 ND 2.44 2.44 | 2.36 | 0/18 |
| 30 | TISMHTSLFSQTINNVA | EVSTREQ | QQYDRLPLT | 0.15 -0.12 0.08 0.41 0.00 0.24 | 0.13 | 1/18 (1.48) |
| 31 | MISQLMNMGTFAINSVA | QAEIRNA | QQYDRLPLQ | 1.62 1.19 2.59 1.10 1.29 1.57 | 1.56 | 0/18 |
| 32 | HIGLATMLQETVRNSVA | NNSTRES | QQYDRLPLS | 1.34 1.18 0.55 1.96 1.38 1.65 | 1.34 | 0/18 |
| 33 | TISGMTNQAMSKHNSVA | NVTMRPE | QQYERLPLS | 0.40 0.13 0.30 0.19 0.34 0.68 | 0.34 | 3/18 (2.74) |
| 34 | MIAQMLGWESNKINSVA | QANLRTE | QQYDRLPLE | 2.33 1.49 1.53 2.23 1.49 1.92 | 1.83 | 0/18 |
| 35 | KISQMVRVGATASNSIA | EEVTRAN | QQYHRLPLS | 1.08 0.67 0.56 0.43 0.55 0.87 | 0.69 | 0/18 |
| 36 | MISQMYNMGSFAINSVA | QASLRNE | QQYDRLPLT | 1.21 1.25 0.85 1.24 0.92 1.12 | 1.10 | 1/18 (2.82) |
| 37 | MISQLMNMGQFAINSVA | QASLRNE | QQYDRLPLM | 1.53 1.75 1.45 1.35 1.34 1.89 | 1.55 | 2/18 (2.27) |
| 38 | MVNGIMDHLSKQHNNVA | ETTTREE | QQYERLPLS | 0.65 0.44 0.30 0.22 0.51 0.59 | 0.45 | 2/18 (3.18) |
| 39 | MISQVMGLNNSYKSSVA | QAETRLN | QQYDHLPLS | 1.83 1.74 1.75 1.91 1.35 1.95 | 1.75 | 0/18 |
| 40 | SLGLVTMLEYAGRNSVA | NNSTRED | QQYDRLPLS | 1.09 1.39 1.21 1.17 1.43 1.50 | 1.30 | 4/18 (2.49) |
| 41 | TIGGTLMYGVMNRSNVA | EVSQRLN | QQYDRLPLI | 1.68 1.90 2.57 2.05 2.05 2.82 | 2.18 | 2/18 (3.98) |
| 42 | MISQLYNMGSFAINSVA | QASVRND | QQYDRLPLI | 2.16 1.64 1.40 1.52 0.60 1.04 | 1.39 | 0/18 |
| 43 | MISQILNMGQFAINSVA | QASIRNE | QQYDRLPLM | 1.44 1.62 1.52 1.60 2.13 1.47 | 1.63 | 0/18 |
| 44 | MVTQLMLWGWHAKNSIA | EAQTRVN | QQYDRLPLD | ND ND ND ND ND ND | ND | 2/18 (3.23) |
| 45 | NISHFMETTSKNINNVA | EMTMREV | QQYHHLPLS | 0.78 0.61 0.51 0.60 0.41 0.77 | 0.61 | 1/18 (2.22) |
| 46 | TITHFMDNLSQNRNNVA | DTSTLGS | QSYDRLPLS | 0.65 0.43 0.49 0.42 0.32 0.62 | 0.49 | 1/18 (2.99) |
| 47 | IVSQLMLWGMHAKNSIA | EAEKRIN | QQYHHLPLI | 3.23 1.32 2.20 2.25 1.31 2.56 | 2.14 | 0/18 |
| 48 | TIGQTLMYGMRNRSNVA | EVSERLN | QQYDRLPLM | 1.32 1.14 1.35 1.59 1.40 1.49 | 1.38 | 1/18 (2.15) |
| 49 | MISQLMNLGQFAINSVA | QASIRNA | QQYDRLPLA | 2.34 ND 2.21 ND 2.43 1.42 | 2.10 | 0/18 |
| 50 | KIGQTLNTLMHTKNNVA | DLVTRED | QQYHRLPLS | 0.39 0.13 0.04 0.05 0.23 0.32 | 0.19 | 2/18 (4.08) |

The authors averaged sequences with at least three values out of six and counted those with two or fewer as poor binders. A sequence measured in both rounds can read differently, since the two assays cover different ranges. Three control strains display no target. For all light chain designs, 4% of the pairings with them gave a signal, with a median of 2.64 and one signal in twenty below 1.59, so weak values seen in few replicates may be background. The control count says in how many pairings with the empty strains this scFv gave a signal, with their mean in brackets.